Measurements from publication PMC4762884 (Nature Communications, 2016).

Molecular target: the molecule itself
Assay: non-reducing SDS-PAGE with immunoblotting

B1: Stimulator of interferon genes (STING), endogenous in THP1 cells (natural protein)
chain: MPHSSLHPSIPCPRGHGAQKAALVLLSACLVTLWGLGEPPEHTLRYLVLHLASLQLGLLLNGVCSLAEELRHIHSRYRGSYWRTVRACLGCPLRRGALLLLSIYFYYSLPNAVGPPFTWMLALLGLSQALNILLGLKGLAPAEISAVCEKGNFNVAHGLAWSYYIGYLRLILPELQARIRTYNQHYNNLLRGAVSQRLYILLPLDCGVPDNLSMADPNIRFLDKLPQQTGDHAGIKDRVYSNSIYELLENGQRAGTCVLEYATPLQTLFAMSQYSQAGFSREDRLEQAKLFCRTLEDILADAPESQNNCRLIAYQEPADDSSFSLSQEVLRHLRQEEKEEVTVGSLKTSAVPSTSTMSQEPELLISGMEKPLPLRTDFS
notes: source: endogenous, THP1 lysate
stoichiometry N: 2
